Nrf2 block: blocks Nrf2 signaling. A549 ARE-Fluc reporter, luciferase luminescence, 18-24 h. Potency, µM (highest dose often 46 µM), actives largely listed as inhibitors. 2.1% of 360,000 active. AID 504444; note: nearly all actives have a fitted effect of over 60% in size
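In this cell-based qHTS, ARE-driven firefly luciferase in A549 cells reports Nrf2 activity; the luminescent signal after BugLite lysis is the measured value, with a prior CellTiter-Fluor read for cell health.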
A549 tox: counter-screen for Nrf2 inhibitors: cytotoxicity in A549 cells | A549 ARE-Fluc cells, CellTiter-Fluor viability, 18-24 h | AID 504648 | Potency, µM (doses to about 46 µM), actives largely listed as inhibitors | 0.16% of 390,000 active
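A549 ARE_Fluc cells in 5% FBS OPTI-MEM were exposed to compounds in concentration-response for 18-24 h at 37 deg C. Viability was read by CellTiter-Fluor fluorescence (Ex 405/Em 525) after 30 min, before the luciferase read.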
miR-21 reporter: raises the signal of a miR-21 reporter; Potency, µM (doses to about 38.3 µM); HeLa miR-21 FLuc reporter, luciferase, 48 h; AID 2288; 340,000 tested, under 10 active; active = well fitted rising curve with a large enough effect; inconclusive = small, poorly fitted or top-dose-only effect; inactive = no such curve, though single readings can be large or run the other way;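 further: miR-21 action dims this reporter so a rising signal means less miR-21 action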
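Luminescence from a firefly luciferase reporter carrying a miR-21 binding site downstream, stably expressed under a CMV promoter in HeLa cells that make miR-21 endogenously, reports miRNA modulation after 48 h compound exposure up to approximately 40uM final.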
Nrf2 ARE act: activators of Nrf2 (ARE) signaling; AID 624171; 0.31% of 410,000 active; Potency, µM (titrated, usually from 46.1 µM), hits mostly activators; AREc32 ARE-luciferase reporter (MCF7-derived line), luminescence, 24 h; note: nearly all actives have a fitted effect of over 65% in size
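Quantitative high-throughput format: AREc32 reporter cells, 1000 per well, received compound by pin transfer and were incubated 24 hr at 37 deg C, 5% CO2, before Steady-Glo luminescence detection.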
Mito fusion yeast: inhibitors of mitochondrial division or activators of mitochondrial fusion; S. cerevisiae fusion-defective mutant growth rescue, CellTiterGlo 48 h; Potency, µM (titrated, usually from 46.1 µM), usual class: activators; 0.23% of 320,000 active; AID 485298; note: nearly all actives have a fitted effect of over 45% in size
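Luminescent cell viability in 1536-well qHTS format served as the measure of rescued growth in ts fusion-mutant S. cerevisiae cultured on non-fermentable YPEG for 48 hours at 37C.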
GRP78 ERSR act: ER stress response induction in glioma | U87-MG GRP78 promoter luciferase reporter, 16 h | Potency, µM, most hits filed as activators | 0.02% of 420,000 active | AID 602332; note: series mostly up to about 76 µM; nearly all actives have a fitted effect of over 35% in size
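Stably transfected U87-MG human glioma cells carrying a GRP78-based luminescent sensor were seeded at 1000 cells/well, pin-dosed with compounds and incubated 16 h. Luciferase reagent was then added, and end-point luminescence was read after 10 min at room temperature.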
Large screens that a line does not name were inactive; ! = repeats disagree. The list is not random: actives were taken first. Their share in the collection is about 2.3%. Unless noted, calls come from the whole dose curve; as a rule, active = well fitted curve in the direction sought with a large enough effect; inconclusive = small, poorly fitted or top-dose-only effect, or another doubt; inactive = no such curve, though single readings can be large; an effect the other way counts as inactive or inconclusive.

O=c1[nH]c(=S)[nH]c(O)c1N=Nc1ccc(S(=O)(=O)N2CCc3ccccc32)cc1	Nrf2 ARE act 8.91µM
Cc1c(N=Nc2c(O)[nH]c(=S)[nH]c2=O)c(=O)n(-c2ccccc2)n1C	none
O=c1[nH]c(=S)[nH]c(O)c1N=Nc1ccc(SC(F)F)cc1	Nrf2 ARE act 15.8µM
CC12CCC(=O)C=C1CCC1C2CCC2(C)C1CCC2(O)CC#N (stereo not given)	none (no result: miR-21 reporter, Mito fusion yeast)
CCN1/C(=C\C=C\C2=[N+](CC)c3ccccc3C2(C)C)C(C)(C)c2ccccc21	Nrf2 block 0.651µM, A549 tox 5.17µM, miR-21 reporter inconclusive
Cc1ccc(C(C)(C)NC(=O)C2CCC(=O)N(C3CCCCCC3)C2)cc1 (stereo not given)	Nrf2 block inconclusive
CC(C)[C@H]1C(=O)O[C@H](C(C)C)C(=O)N(C)[C@@H](C(C)C)C(=O)O[C@H](C(C)C)C(=O)N(C)[C@@H](C(C)C)C(=O)O[C@H](C(C)C)C(=O)N1C	Nrf2 block 3.66µM, A549 tox inconclusive, miR-21 reporter inconclusive
COc1ccc(C(=O)c2nc3ccccc3n2C(C)C)cc1	none
C[C@@H]1O[C@@H](O[C@H]2C[C@@H](O)[C@]3(CO)[C@H]4[C@H](O)C[C@]5(C)[C@@H](C6COC(=O)C6)CC[C@]5(O)[C@@H]4CC[C@]3(O)C2)[C@H](O)[C@H](O)[C@H]1O (stereo not given in full)	Nrf2 block 0.411µM, A549 tox inconclusive, miR-21 reporter inconclusive
C[C@@H]1O[C@@H](O[C@H]2C[C@@H](O)[C@]3(CO)[C@@H]4C(CC[C@]3(O)C2)[C@@]2(O)CC[C@H]([C@@H]3COC(=O)C3)[C@@]2(C)C[C@H]4O)[C@H](O)[C@H](O)[C@H]1O (stereo not given in full)	none (no result: Nrf2 block, A549 tox, miR-21 reporter, Nrf2 ARE act)
CC[n+]1c(-c2ccccc2)c2cc(N)ccc2c2ccc(N)cc21	Nrf2 block 14.6µM, A549 tox inconclusive (no result: miR-21 reporter, Mito fusion yeast)
c1ccc(-c2ccc(C(c3ccccc3)n3ccnc3)cc2)cc1 (stereo not given)	Nrf2 block inconclusive, Mito fusion yeast 14.1µM
c1ccc(C(c2ccccc2)c2cccnc2)cc1	none (no result: miR-21 reporter, Mito fusion yeast)
CCOC(=O)c1ccc(NC(=O)Nc2cc3c(cc2N2CCCCC2)n(CC)c(=O)n3CC)cc1	Nrf2 block inconclusive, miR-21 reporter inconclusive (no result: Mito fusion yeast)
Cc1ccc(NC(=O)Nc2cc3c(cc2N2CCCCC2)n(C)c(=O)n3C)cc1Cl	Nrf2 block 20.6µM, miR-21 reporter inconclusive (no result: Mito fusion yeast)
CN1C(=O)c2ccccc2Sc2ccc(NC(=O)NCc3ccc(Cl)cc3)cc21	Nrf2 block 14.6µM, miR-21 reporter inconclusive (no result: Mito fusion yeast)
C=CCN1CCc2cccc3c2[C@H]1Cc1ccc(O)c(O)c1-3	Nrf2 block inconclusive, Mito fusion yeast 4.11µM!, GRP78 ERSR act inconclusive
CCCN1CCc2cc(O)cc3c2C1Cc1ccc(O)c(O)c1-3 (stereo not given)	none (no result: Nrf2 block, A549 tox, miR-21 reporter, Nrf2 ARE act, Mito fusion yeast)
CC(=O)OC1C[C@H](O[C@@H]2C(O)C[C@H](O[C@@H]3C(O)C[C@@H](OC4CC[C@]5(C)C(CCC6C5CC(O)[C@@]5(C)C(C7=CC(=O)OC7)CC[C@@]65O)C4)OC3C)OC2C)O[C@H](C)[C@H]1O[C@H]1OC(CO)C(O)C(O)C1O (stereo not given in full)	none (no result: Nrf2 block, A549 tox, miR-21 reporter, Nrf2 ARE act, Mito fusion yeast)
CC(=O)OC1CC(OC2C(O)CC(OC3C(O)CC(OC4CCC5(C)C(CCC6C5CCC5(C)C(C7=CC(=O)OC7)CCC65O)C4)OC3C)OC2C)OC(C)C1OC1OC(CO)C(O)C(O)C1O (stereo not given)	Nrf2 block 0.0366µM, A549 tox inconclusive (no result: miR-21 reporter, Mito fusion yeast)
COc1ccc(CCNC(=O)c2ccc3c(c2)N=C(C)c2cc(C)ccc2S3)cc1OC	Nrf2 block 14.6µM (no result: Mito fusion yeast)
O=C(Nc1ccc(Br)cc1)c1cccc(S(=O)(=O)N2CCc3ccccc32)c1	Nrf2 block 16.4µM, miR-21 reporter inconclusive (no result: Mito fusion yeast)
Cc1cccc(N2CCN(C(=O)CCNS(=O)(=O)c3ccc4c(c3)oc(=O)n4C)CC2)c1C	Nrf2 block 20.6µM, Mito fusion yeast 20µM
S=C(S)N1CCCC1	Nrf2 block 5.8µM (no result: miR-21 reporter)
